Target: T1, MC4 (Homo sapiens, UniProt P32245)
Assay: biochemical
Settings: not given

Sequences of proteins named here, by UniProt entry; tags and fusion partners are left off.
UniProt P32245, whole entry: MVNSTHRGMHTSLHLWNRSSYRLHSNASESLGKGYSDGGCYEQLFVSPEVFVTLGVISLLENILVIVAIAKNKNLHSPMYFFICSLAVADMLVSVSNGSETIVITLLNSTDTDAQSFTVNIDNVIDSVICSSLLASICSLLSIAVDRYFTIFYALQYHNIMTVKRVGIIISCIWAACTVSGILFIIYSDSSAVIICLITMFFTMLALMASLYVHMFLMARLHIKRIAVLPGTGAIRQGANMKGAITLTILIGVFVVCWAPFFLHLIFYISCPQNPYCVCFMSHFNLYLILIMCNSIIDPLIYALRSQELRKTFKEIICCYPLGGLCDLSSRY

Row | SMILES | Ki
1 | N=C(N)NCCC[C@@H]1NC(=O)[C@@H](Cc2ccccc2)NC(=O)[C@H](Cc2c[nH]cn2)NC(=O)[C@H](CCC(=O)O)NC(=O)[C@@H](NC(=O)[C@@H](CCCNC(=N)N)NC(=O)CCC(=O)NS(=O)(=O)c2ccc3ccccc3c2)CSSC[C@@H](C(N)=O)NC(=O)[C@H](Cc2c[nH]c3ccccc23)NC1=O [Compound No. 65, N-(2-naphthalenesulfonylamino-4-oxo-butyryl)-D-Arg-cyclo[Cys-Glu-His-D-Phe-Arg-Trp-Cys]-NH2] | 6.53 nM
2 | CC(=O)N[C@@H](Cc1ccc(O)cc1)C(=O)N[C@@H](CCCNC(=N)N)C(=O)N[C@H]1CSSC[C@@H](C(N)=O)NC(=O)[C@H](Cc2c[nH]c3ccccc23)NC(=O)[C@H](CCCNC(=N)N)NC(=O)[C@@H](Cc2ccccc2)NC(=O)[C@H](Cc2ncn(Cc3ccccc3)n2)NC(=O)[C@H](CCC(=O)O)NC1=O [Compound No. 108] | 31.4 nM
3 | CC(=O)N[C@@H](Cc1ccc(O)cc1)C(=O)N[C@@H](CCCNC(=N)N)C(=O)N[C@H]1CSSC[C@@H](C(N)=O)NC(=O)[C@H](Cc2c[nH]c3ccccc23)NC(=O)[C@H](CCCNC(=N)N)NC(=O)[C@@H](Cc2ccccc2)NC(=O)[C@@H](Cc2ncn(Cc3ccccc3)n2)NC(=O)[C@H](CCC(=O)O)NC1=O [Compound No. 109] | 82.7 nM

Target: T1, MC4
Assay: not given
Settings: read-out: MC4 Ki

Row | SMILES | Ki
4 | CC1(C)SSCC[C@H](NC(=O)C2CCCCC2)C(=O)N[C@@H](Cc2c[nH]cn2)C(=O)N[C@H](Cc2ccccc2)C(=O)N[C@@H](CCCNC(=N)N)C(=O)N[C@@H](Cc2c[nH]c3ccccc23)C(=O)N[C@@H]1C(N)=O [Compound No. 172, N-cyclohexanecarbonyl-cyclo[hCys-His-D-Phe-Arg-Trp-penicillamine]-NH2] | 0.15 nM
5 | CC1(C)SSCC[C@H](NS(=O)(=O)c2ccccc2)C(=O)N[C@@H](Cc2c[nH]cn2)C(=O)N[C@H](Cc2ccccc2)C(=O)N[C@@H](CCCNC(=N)N)C(=O)N[C@@H](Cc2c[nH]c3ccccc23)C(=O)N[C@@H]1C(N)=O [Compound No. 175, N-phenylsulfonyl-cyclo[hCys-His-D-Phe-Arg-Trp-penicillamine]-NH2] | 1.29 nM
6 | CC1(C)SSCC[C@H](NC(=O)CCCNS(=O)(=O)c2ccccc2)C(=O)N[C@@H](Cc2c[nH]cn2)C(=O)N[C@H](Cc2ccccc2)C(=O)N[C@@H](CCCNC(=N)N)C(=O)N[C@@H](Cc2c[nH]c3ccccc23)C(=O)N[C@@H]1C(N)=O [Compound No. 176, (4-benzenesulfonamide)butyryl-cyclo[hCys-His-D-Phe-Arg-Trp-penicillamine]-NH2] | 0.49 nM
7 | N=C(N)NCCC[C@@H]1NC(=O)[C@@H](Cc2ccccc2)NC(=O)[C@H](Cc2c[nH]cn2)NC(=O)CCSSCC[C@@H](C(N)=O)NC(=O)[C@H](Cc2c[nH]c3ccccc23)NC1=O [Compound No. 179, cyclo[3-thiopropionyl-His-D-Phe-Arg-Trp-hCys]-NH2] | 93.5 nM
8 | N=C(N)NCCC[C@@H]1NC(=O)[C@@H](Cc2ccccc2)NC(=O)[C@H](Cc2c[nH]cn2)NC(=O)[C@@H](N)CSSCC[C@@H](C(N)=O)NC(=O)[C@H](Cc2c[nH]c3ccccc23)NC1=O [Compound No. 180, cyclo[Cys-His-D-Phe-Arg-Trp-hCys]-NH2] | 16.5 nM
9 | N=C(N)NCCC[C@@H]1NC(=O)[C@@H](Cc2ccc(Cl)cc2)NC(=O)[C@H](Cc2c[nH]cn2)NC(=O)[C@@H](N)CSSCC[C@@H](C(N)=O)NC(=O)[C@H](Cc2c[nH]c3ccccc23)NC1=O [Compound No. 182, cyclo[Cys-His-(4-Cl-D-Phe)-Arg-Trp-hCys]-NH2] | 0.89 nM
10 | CC(=O)N[C@H]1CSSCC[C@@H](C(N)=O)NC(=O)[C@H](Cc2c[nH]c3ccccc23)NC(=O)[C@H](CCCNC(=N)N)NC(=O)[C@@H](Cc2ccccc2)NC(=O)[C@H](Cc2c[nH]cn2)NC1=O [Compound No. 183, Ac-cyclo[Cys-His-D-Phe-Arg-Trp-hCys]-NH2] | 9.37 nM
11 | CC(=O)N[C@H]1CSSCC[C@@H](C(N)=O)NC(=O)[C@H](Cc2c[nH]c3ccccc23)NC(=O)[C@H](CCCNC(=N)N)NC(=O)[C@@H](Cc2ccc(Cl)cc2)NC(=O)[C@H](Cc2c[nH]cn2)NC1=O [Compound No. 185, Ac-cyclo[Cys-His-(4-Cl-D-Phe)-Arg-Trp-hCys]-NH2] | 0.47 nM
12 | N=C(N)NCCC[C@@H]1NC(=O)[C@@H](Cc2ccccc2)NC(=O)[C@H](Cc2c[nH]cn2)NC(=O)[C@@H](NC(=O)[C@@H](N)CCCNC(=N)N)CSSCC[C@@H](C(N)=O)NC(=O)[C@H](Cc2c[nH]c3ccccc23)NC1=O [Compound No. 186, Arg-cyclo[Cys-His-D-Phe-Arg-Trp-hCys]-NH2] | 5.21 nM
13 | N=C(N)NCCC[C@@H]1NC(=O)[C@@H](Cc2ccc(F)cc2)NC(=O)[C@H](Cc2c[nH]cn2)NC(=O)[C@@H](NC(=O)[C@@H](N)CCCNC(=N)N)CSSCC[C@@H](C(N)=O)NC(=O)[C@H](Cc2c[nH]c3ccccc23)NC1=O [Compound No. 187, Arg-cyclo[Cys-His-(4-F-D-Phe)-Arg-Trp-hCys]-NH2] | 2.02 nM
14 | N=C(N)NCCC[C@@H]1NC(=O)[C@@H](Cc2ccc(Cl)cc2)NC(=O)[C@H](Cc2c[nH]cn2)NC(=O)[C@@H](NC(=O)[C@@H](N)CCCNC(=N)N)CSSCC[C@@H](C(N)=O)NC(=O)[C@H](Cc2c[nH]c3ccccc23)NC1=O [Compound No. 188, Arg-cyclo[Cys-His-(4-Cl-D-Phe)-Arg-Trp-hCys]-NH2] | 0.92 nM
15 | CC(=O)N[C@@H](CCCNC(=N)N)C(=O)N[C@H]1CSSCC[C@@H](C(N)=O)NC(=O)[C@H](Cc2c[nH]c3ccccc23)NC(=O)[C@H](CCCNC(=N)N)NC(=O)[C@@H](Cc2ccccc2)NC(=O)[C@H](Cc2c[nH]cn2)NC1=O [Compound No. 189, Ac-Arg-cyclo[Cys-His-D-Phe-Arg-Trp-hCys]-NH2] | 2.72 nM
16 | CC(=O)N[C@@H](CCCNC(=N)N)C(=O)N[C@H]1CSSCC[C@@H](C(N)=O)NC(=O)[C@H](Cc2c[nH]c3ccccc23)NC(=O)[C@H](CCCNC(=N)N)NC(=O)[C@@H](Cc2ccc(F)cc2)NC(=O)[C@H](Cc2c[nH]cn2)NC1=O [Compound No. 190, Ac-Arg-cyclo[Cys-His-(4-F-D-Phe)-Arg-Trp-hCys]-NH2] | 0.17 nM
17 | CC(=O)N[C@@H](Cc1ccc(O)cc1)C(=O)N[C@@H](CCCNC(=N)N)C(=O)N[C@H]1CSSCC[C@@H](C(N)=O)NC(=O)[C@H](Cc2c[nH]c3ccccc23)NC(=O)[C@H](CCCNC(=N)N)NC(=O)[C@@H](Cc2ccccc2)NC(=O)[C@H](Cc2c[nH]cn2)NC(=O)[C@H](CCC(=O)O)NC1=O [Compound No. 192, Ac-Tyr-Arg-cyclo[Cys-Glu-His-D-Phe-Arg-Trp-hCys]-NH2] | 36.7 nM
18 | CC(=O)N[C@H]1CCSSCC[C@@H](C(N)=O)NC(=O)[C@H](Cc2c[nH]c3ccccc23)NC(=O)[C@H](CCCNC(=N)N)NC(=O)[C@@H](Cc2ccccc2)NC(=O)[C@H](Cc2c[nH]cn2)NC1=O [Compound No. 193, Ac-cyclo[hCys-His-D-Phe-Arg-Trp-hCys]-NH2] | 2.59 nM
19 | CC(=O)N[C@@H](Cc1ccc(O)cc1)C(=O)N[C@@H](CCCNC(=N)N)C(=O)N[C@H]1CCSSCC[C@@H](C(N)=O)NC(=O)[C@H](Cc2c[nH]c3ccccc23)NC(=O)[C@H](CCCNC(=N)N)NC(=O)[C@@H](Cc2ccccc2)NC(=O)[C@H](Cc2c[nH]cn2)NC1=O [Compound No. 196, Ac-Tyr-Arg-cyclo[hCys-His-D-Phe-Arg-Trp-hCys]-NH2] | 2.1 nM
20 | CC(=O)N[C@@H](Cc1ccc(O)cc1)C(=O)N[C@@H](CCCNC(=N)N)C(=O)N[C@H]1CCSSCC[C@@H](C(N)=O)NC(=O)[C@H](Cc2c[nH]c3ccccc23)NC(=O)[C@H](CCCNC(=N)N)NC(=O)[C@@H](Cc2ccccc2)NC(=O)[C@H](Cc2c[nH]cn2)NC(=O)[C@H](CCC(=O)O)NC1=O [Compound No. 197, Ac-Tyr-Arg-cyclo[hCys-Glu-His-D-Phe-Arg-Trp-hCys]-NH2] | 21.8 nM
21 | CC(=O)N[C@H]1CSCSC[C@@H](C(N)=O)NC(=O)[C@H](Cc2c[nH]c3ccccc23)NC(=O)[C@H](CCCNC(=N)N)NC(=O)[C@@H](Cc2ccccc2)NC(=O)[C@H](Cc2c[nH]cn2)NC1=O [Compound No. 198, Ac-cyclo(S-CH2-S)[Cys-His-D-Phe-Arg-Trp-Cys]-NH2] | 16.7 nM
